Test results: patent US20190106460A1, “BINDING INHIBITORS OF THE BETA. TRANSDUCIN REPEAT-CONTAINING PROTEIN” (priority 2011, published 2019)
Where “and” joins values, the source holds several entries; their conditions need not be identical. Identical values can stand only once.

Sequences of proteins named here, by UniProt entry; tags and fusion partners are left off. A change or cut given only in a name is not applied to a line headed by its entry.
UniProt Q9Y297: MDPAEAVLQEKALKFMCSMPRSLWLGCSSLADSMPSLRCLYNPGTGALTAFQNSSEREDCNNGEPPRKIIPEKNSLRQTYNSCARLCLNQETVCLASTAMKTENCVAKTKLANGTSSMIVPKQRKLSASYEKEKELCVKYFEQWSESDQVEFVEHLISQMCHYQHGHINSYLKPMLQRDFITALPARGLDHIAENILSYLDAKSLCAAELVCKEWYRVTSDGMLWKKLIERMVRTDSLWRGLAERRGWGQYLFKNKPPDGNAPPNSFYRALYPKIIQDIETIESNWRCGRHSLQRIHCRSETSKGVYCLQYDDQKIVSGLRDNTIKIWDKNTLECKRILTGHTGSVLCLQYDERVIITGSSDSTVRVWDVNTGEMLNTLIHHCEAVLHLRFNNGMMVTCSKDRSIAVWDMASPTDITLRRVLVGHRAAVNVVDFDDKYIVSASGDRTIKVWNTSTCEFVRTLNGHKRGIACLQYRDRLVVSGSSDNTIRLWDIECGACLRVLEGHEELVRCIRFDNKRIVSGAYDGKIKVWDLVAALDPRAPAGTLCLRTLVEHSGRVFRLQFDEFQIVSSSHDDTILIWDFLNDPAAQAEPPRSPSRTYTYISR

Target: βTrCP (Homo sapiens, UniProt Q9Y297)
Assay: Fluorescence polarisation (FP) binding assay with fluorescein-tagged IκB peptide
Details: Tables 1, 3, 7, 8; 10 nM fluorescein-tagged IκB peptide

Structure (SMILES)	IC50
C[C@H](NC(=O)[C@@H](N)CCC(=O)O)C(=O)N[C@@H](Cc1ccccc1)C(=O)N[C@@H](Cc1ccccc1)C(=O)N[C@@H](CCC(=O)O)C(N)=O [EAFFE-NH2]	28 µM and > 100 µM
NC(=O)CC[C@H](N)C(=O)NCC(=O)N[C@@H](Cc1ccc(O)cc1)C(=O)N[C@@H](Cc1ccccc1)C(=O)N[C@@H](CCC(=O)O)C(N)=O [QGYFE-NH2]	> 100 µM
NC(=O)CC[C@H](N)C(=O)NCC(=O)N[C@@H](Cc1ccccc1)C(=O)N[C@@H](Cc1ccccc1)C(=O)N[C@@H](CCC(=O)O)C(N)=O [QGFFE-NH2]	> 100 µM
C[C@H](NC(=O)[C@@H](N)CCC(=O)O)C(=O)N[C@@H](Cc1ccc(O)cc1)C(=O)N[C@@H](Cc1ccccc1)C(=O)N[C@@H](CCC(=O)O)C(N)=O [EAYFE-NH2]	> 100 µM
C[C@H](N)C(=O)NCC(=O)N[C@@H](Cc1ccc(O)cc1)C(=O)N[C@@H](Cc1ccccc1)C(=O)N[C@@H](CCC(=O)O)C(N)=O [AGYFE-NH2]	> 100 µM
